Laboratory results: patent US20240182465A1 (GENFLEET THERAPEUTICS (SHANGHAI) INC., priority 2021, published 2024)

Sequences of proteins named here, by UniProt entry; tags and fusion partners are left off. Residues count along the entry.
UniProt Q92918, whole entry: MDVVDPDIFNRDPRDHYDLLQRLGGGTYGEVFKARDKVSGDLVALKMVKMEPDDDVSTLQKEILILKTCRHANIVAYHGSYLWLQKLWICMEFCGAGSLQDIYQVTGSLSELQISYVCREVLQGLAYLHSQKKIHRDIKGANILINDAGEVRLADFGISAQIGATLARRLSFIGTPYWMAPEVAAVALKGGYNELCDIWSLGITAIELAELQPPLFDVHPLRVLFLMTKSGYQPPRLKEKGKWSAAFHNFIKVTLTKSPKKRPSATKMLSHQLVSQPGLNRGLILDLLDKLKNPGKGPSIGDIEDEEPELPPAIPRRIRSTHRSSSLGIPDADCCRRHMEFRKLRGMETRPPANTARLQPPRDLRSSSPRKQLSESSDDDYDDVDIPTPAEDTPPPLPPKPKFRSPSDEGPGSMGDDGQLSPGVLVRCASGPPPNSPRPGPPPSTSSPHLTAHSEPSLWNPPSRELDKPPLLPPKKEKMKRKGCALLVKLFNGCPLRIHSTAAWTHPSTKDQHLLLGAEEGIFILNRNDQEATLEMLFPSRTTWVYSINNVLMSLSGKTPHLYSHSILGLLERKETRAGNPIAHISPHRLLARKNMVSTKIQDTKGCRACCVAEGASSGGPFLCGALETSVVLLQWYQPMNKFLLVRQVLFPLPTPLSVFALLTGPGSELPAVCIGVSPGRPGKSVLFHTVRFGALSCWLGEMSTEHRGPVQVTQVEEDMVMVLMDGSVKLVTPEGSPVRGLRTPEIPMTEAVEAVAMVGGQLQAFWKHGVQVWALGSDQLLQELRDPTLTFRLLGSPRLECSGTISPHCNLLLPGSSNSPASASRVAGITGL
UniProt Q92918, 1-346 limits assumed: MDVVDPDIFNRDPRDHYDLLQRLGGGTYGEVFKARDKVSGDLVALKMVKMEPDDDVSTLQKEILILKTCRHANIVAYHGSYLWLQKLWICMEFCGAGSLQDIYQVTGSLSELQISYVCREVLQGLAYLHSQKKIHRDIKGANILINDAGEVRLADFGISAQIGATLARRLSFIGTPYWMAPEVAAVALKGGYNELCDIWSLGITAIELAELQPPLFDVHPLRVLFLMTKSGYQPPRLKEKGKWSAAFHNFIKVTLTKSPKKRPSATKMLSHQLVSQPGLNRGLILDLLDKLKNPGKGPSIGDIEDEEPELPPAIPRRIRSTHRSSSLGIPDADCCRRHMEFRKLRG

Legend:
HPK1 [1] = target: T1, HPK1 (Homo sapiens, UniProt Q92918); test: SLP76 phosphorylation assay (intracellular HPK1 inhibitory activity, p-SLP76 Ser376 sandwich ELISA); conditions: p-SLP76 IC50(nM), Jurkat, Clone E6-1 cells; 1 h compound pre-incubation, anti-CD3 beads stimulation 20 min; SLP76 phosphorylation at S376
HPK1 [2] = target: T1, HPK1; test: HPK1 kinase activity assay (ADP-Glo); conditions: HPK1 Kinase activity IC50 (nM), 1 nM HPK1, 10 μM ATP, 0.1 μg/μL MBP

Which results are given for Cc1c[nH]c2ncc(-c3cc4c(c([C@@H]5CCCN5)c3)CN(C(=O)C(O)(C(F)(F)F)C(F)(F)F)CC4)cc12 [Compound Z297, (S)-3,3,3-trifluoro-2-hydroxy-1-(6-(3-methyl-1H-pyrrolo[2,3-b]pyridin-5-yl)-8-(pyrrolidin-2-yl)-3,4-dihydroisoquinolin-2(1H)-yl)-2-(trifluoromethyl)propan-1-one]?
IC50 (HPK1 [1]): 1010 nM; IC50 (HPK1 [2]): 2.37 nM
